The target in this assay is Urokinase-type plasminogen activator (Homo sapiens, UniProt P00749). As to the kind of experiment: Inhibition of human uPA using pyroGlu-Gly-Arg-p-NA.HCl as substrate preincubated for 15 mins prior substrate addition measured for 10 mins by spectrophotometry.

As a reminder, the IC50 is the concentration needed to halve the response being measured.

For the molecule `[H]/N=C(\N)c1ccc2cc(C(=O)Nc3ccc(CN)cc3)ccc2c1`, inhibition was half-maximal at 1200 nM (IC50).
